Results: patent US8809010B2, “Method for prophylactic treatment of alzheimer's disease using inhibitors of glutaminyl cyclase and glutamate cyclases” (Probiodrug AG, priority 2003, dated 2014)

Substrate: NC(=O)CCC(N)C(=O)Nc1ccc2ccccc2c1
Experiment: Continuous spectrophotometric QC assay (glutamate dehydrogenase coupled), substrate kinetics;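 further: initial rates read on a microplate reader at 30 °C, with enzyme activity quantified against an ammonia calibration curve under the same assay conditions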
Format: biochemical
Conditions: other: Human QC; pH 8.8

B1: human QC (Homo sapiens) (protein)
chain: VSPSASAWPEEKNYHQPAILNSSALRQIAEGTSISEMWQNDLQPLLIERYPGSPGSYAARQHIMQRIQRLQADWVLEIDTFLSQTPYGYRSFSNIISTLNPTAKRHLVLACHYDSKYFSHWNNRVFVGATDSAVPCAMMLELARALDKKLLSLKTVSDSKPDLSLQLIFFDGEEAFLHWSPQDSLYGSRHLAAKMASTPHPPGARGTSQLHGMDLLVLLDLIGAPNPTFPNFFPNSARWFERLQAIEHELHELGLLKDHSLEGRYFQNYSYGGVIQDDHIPFLRRGVPVLHLIPSPFPEVWHTMDDNEENLDESTIDNLNKILQVFVLEYLHL
notes: The cDNA of the mature QC starting with codon 38 was fused in frame with the plasmid encoded 6× histidine tag; 6xHis; made in house; host or cells: Pichia pastoris X33 (pPICZαB, secreted); also E. coli M15 (pQE-31)
kcat/Km: 294000 ± 6000 M⁻¹ s⁻¹
